Laboratory results taken from PMC7021470 (mSphere, 2020).

Biological target: T1, E. faecalis metalloprotease GelE (bacterial supernatants) (Enterococcus faecalis, UniProt Q833V7)
T1 sequence (Q833V7 whole entry, looked up): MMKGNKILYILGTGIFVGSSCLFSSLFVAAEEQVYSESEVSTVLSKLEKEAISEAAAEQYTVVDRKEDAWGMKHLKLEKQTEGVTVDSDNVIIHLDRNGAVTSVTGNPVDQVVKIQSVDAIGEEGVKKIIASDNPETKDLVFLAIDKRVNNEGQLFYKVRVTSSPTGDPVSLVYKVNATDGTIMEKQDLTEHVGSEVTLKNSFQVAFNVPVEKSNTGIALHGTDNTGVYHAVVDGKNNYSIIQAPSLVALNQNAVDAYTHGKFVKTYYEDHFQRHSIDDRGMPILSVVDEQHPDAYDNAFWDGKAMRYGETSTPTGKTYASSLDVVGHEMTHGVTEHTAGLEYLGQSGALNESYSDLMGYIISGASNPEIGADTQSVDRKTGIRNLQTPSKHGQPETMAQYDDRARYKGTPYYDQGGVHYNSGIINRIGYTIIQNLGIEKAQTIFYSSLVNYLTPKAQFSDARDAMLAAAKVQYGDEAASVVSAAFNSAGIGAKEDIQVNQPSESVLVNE
Conditions: E. faecalis 30054A supernatant, 1x (undiluted); recombinant substrate; 4 h at room temperature; Luminex (Milliplex) read-out; mean ± SD, n = 3 independent experiments
Protocol: To gain a better understanding of the substrate preference of GelE, we also tested the ability of diluted supernatants of E. faecalis 30054A, from 1 to 0.0001×, to degrade the same panel of metabolic substrates (Table 1).
Bacterial supernatants were collected from an overnight culture by centrifugation as described above, diluted in bacterial culture medium as indicated, and incubated with recombinant protein (GenScript; Sigma, Tocris) of each analyte for 4 h at room temperature, followed by storage at –80°C until ready for analyte quantification. The Milliplex multiplex assay was run according to the protocol provided by the manufacturer.

Substance	quantity (%) of substrate remaining after incubation with supernatant, dilution 1x
monocyte chemoattractant protein-1 [MCP-1]	35.14 ± 14.14%
tumor necrosis factor alpha [TNFα]	39.73 ± 8.05%
